Reference: patent publication US8710085B2, “Pyrrolidine-1,2-dicarboxamide derivatives” (Novartis AG, priority 2008, dated 2014)

Chains of the proteins cited; added tags and fusions are not shown. A line that says so, or that is headed by a name, gives the form on record, which may keep a tag or linker.
UniProt P42336, with tags, fused parts or gaps: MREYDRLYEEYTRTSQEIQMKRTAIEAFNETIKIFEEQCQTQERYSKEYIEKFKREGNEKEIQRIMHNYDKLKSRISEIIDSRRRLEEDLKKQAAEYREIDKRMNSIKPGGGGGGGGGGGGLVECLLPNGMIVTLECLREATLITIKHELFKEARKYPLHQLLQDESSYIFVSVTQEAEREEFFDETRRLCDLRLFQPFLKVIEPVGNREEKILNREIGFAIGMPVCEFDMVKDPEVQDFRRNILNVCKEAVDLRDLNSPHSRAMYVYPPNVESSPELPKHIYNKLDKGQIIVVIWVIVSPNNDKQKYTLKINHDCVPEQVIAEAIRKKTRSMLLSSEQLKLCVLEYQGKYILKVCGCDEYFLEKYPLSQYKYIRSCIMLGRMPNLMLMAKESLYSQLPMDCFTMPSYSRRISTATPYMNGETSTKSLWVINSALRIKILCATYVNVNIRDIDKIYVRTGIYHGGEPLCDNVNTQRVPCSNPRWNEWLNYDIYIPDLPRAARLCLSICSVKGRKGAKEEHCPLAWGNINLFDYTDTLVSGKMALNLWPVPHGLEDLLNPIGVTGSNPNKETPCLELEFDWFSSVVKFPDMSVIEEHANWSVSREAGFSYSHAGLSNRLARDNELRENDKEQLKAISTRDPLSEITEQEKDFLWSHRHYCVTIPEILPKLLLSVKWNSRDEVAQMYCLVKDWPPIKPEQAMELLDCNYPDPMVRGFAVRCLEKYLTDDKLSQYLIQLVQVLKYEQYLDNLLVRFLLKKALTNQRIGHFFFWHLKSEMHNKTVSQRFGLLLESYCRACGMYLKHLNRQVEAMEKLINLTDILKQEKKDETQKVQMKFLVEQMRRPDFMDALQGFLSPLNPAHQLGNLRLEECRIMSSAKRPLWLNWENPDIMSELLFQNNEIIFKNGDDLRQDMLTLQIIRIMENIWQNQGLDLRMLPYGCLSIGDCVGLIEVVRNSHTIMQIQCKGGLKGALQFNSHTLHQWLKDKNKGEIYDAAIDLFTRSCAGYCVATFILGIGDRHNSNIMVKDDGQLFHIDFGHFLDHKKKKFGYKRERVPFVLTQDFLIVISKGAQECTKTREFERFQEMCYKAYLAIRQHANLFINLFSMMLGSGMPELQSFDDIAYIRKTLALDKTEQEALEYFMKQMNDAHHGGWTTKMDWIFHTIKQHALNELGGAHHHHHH

Target: T1, PI3Kα (Homo sapiens, UniProt P42336)
T1 construct: p110α(21-1068)-His; made in house; host or cells: baculovirus, Tn5 insect cells
Assay: PI3K KinaseGlo assay, PI3Kα
Format: biochemical
Details: 10 nM enzyme, 1 μM ATP, 30 mins, room temperature

Row | SMILES | PI3Ka/IC50 [umol I-1]
1 | Cc1nc(NC(=O)N2CCC[C@H]2C(N)=O)sc1-c1ccnc(C2(C)CC2)n1 [Example 42, (S)-Pyrrolidine-1,2-dicarboxylic acid 2-amide 1-({4-methyl-5-[2-(1-methylcyclopropyl)-pyrimidin-4-yl]-thiazol-2-yl}-amide)] | 0.012
2 | Cc1nc(NC(=O)N2CCC[C@H]2C(N)=O)sc1-c1ccnc(C(C)(C)C)c1 [Example 1, (S)-Pyrrolidine-1,2-dicarboxylic acid 2-amide 1-{[5-(2-tert-butyl-pyridin-4-yl)-4-methyl-thiazol-2-yl]-amide}] | 0.014
